In patent US20090010923A1, “TREATMENT OF CANCER WITH ANTI-MUSCARINIC RECEPTOR AGENTS” (University of Maryland, Baltimore, priority 2007, published 2009):

Tested on: M1R and M3R
Text: Muscarinic receptor subtypes were expressed in murine gastric chief cells using M1R^−/−, M3R^−/− and M1/3R^−/− mice. […] The mice were generated using gene targeting.

## C[N+](C)(C)CCOC(N)=O [carbachol]
M1R-/- mouse gastric glands
  decrease in maximal carbachol-induced pepsinogen secretion: approx. 25%
M3R-/- compared to WT mouse gastric glands
  carbachol potency or efficacy, pepsinogen secretion: no difference
Glands from M1/3R-/- mice
  agonist-induced pepsinogen secretion: eliminated
